Antibody variant affinities, Ab-14 light chain, assay 1

Values reported by Engelhart et al. 2022, doi:10.1038/s41597-022-01779-4 (FLAb copy).

Binding partner: SARS-CoV-2 spike HR2 peptide, sequence PDVDLGDISGINAS.

Parent: Ab-14, a human scFv built as VH, the linker GGGGSGGGGSGGGGS, VL. Only the CDRs of the light chain vary.
VH: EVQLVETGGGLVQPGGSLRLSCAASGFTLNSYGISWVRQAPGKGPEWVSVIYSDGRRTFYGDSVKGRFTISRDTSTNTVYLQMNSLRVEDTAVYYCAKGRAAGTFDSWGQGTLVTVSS
VL: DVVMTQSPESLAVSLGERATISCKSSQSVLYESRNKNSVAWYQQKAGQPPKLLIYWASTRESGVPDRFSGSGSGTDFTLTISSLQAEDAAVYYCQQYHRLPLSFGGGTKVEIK

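Variants in AAYL50 differ from the parent at up to three CDR positions; double and triple changes were sampled at random. The scFvs were displayed on barcoded MATa yeast, the peptide on MATalpha yeast. The frequency of each diploid, read from paired DNA barcodes, reflects how well the two displayed proteins bind. Read counts were normalised to the haploid input and turned into Kd by a linear fit to BCL2-family pairs of known affinity, for each replicate. Mating was done three times.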

Variants are written as CDR1, CDR2 and CDR3 of the light chain (limits as in the source). Parent: KSSQSVLYESRNKNSVA, WASTRES, QQYHRLPLS. Every variant below is changed at H98 of the VL (sequential numbering). The read-out is the apparent dissociation constant on a log10 scale (nM): the lower, the stronger. Replicates are averaged; those with no signal do not enter the mean. Where no diploid with the target was found in that replicate, the entry reads "n.d.": below detection, most likely a poor binder, though not proof of it. For reference, the parent read 0.65 as the reference entry and 1.68 as a member of this library.

CDR-L1,CDR-L2,CDR-L3,log10 Kd (nM) by replicate,"mean, log10 nM"
KSSQSVLYESRNKYSVA,WASTRES,QKYSRLPLS,n.d. / n.d. / 3.26,3.26
KSSQSVLYESRNKNSVA,WASTRES,QDYLRLLLS,0.49 / 0.72 / 0.71,0.64
KSSQSVLYESRNKNSVA,WASTRES,QQYIRLPLS,0.99 / 0.96 / 0.93,0.96
KSSQSVLPESRNKNSVA,WASTRES,QQYARLPHS,0.92 / 0.88 / 1.26,1.02
KSSQSVLYEKRNKNSVA,WASTRES,QQYARLPLS,1.00 / 1.09 / 1.03,1.04
KSSQHVLTESRNKNSVA,WASTRES,QQYARLPLS,n.d. / n.d. / n.d.,n.d.
HSSQSVLYESRNKTSVA,WASTRES,QQYWRLPLS,2.24 / 3.12 / 2.31,2.56
KSSQSVLYESRNKNSVA,WASTRES,QQYFRLCKS,n.d. / n.d. / n.d.,n.d.
KSSQSVLYESRNKNSVA,YASTLES,QQYSRLPLS,0.65 / 0.84 / 0.81,0.77
KSSQSVKYESRNKNSVA,WASTRES,QQYWRLRLS,2.69 / 2.22 / 2.45,2.45
KSSDSVLYESRNKNSVA,WASTRFS,QQYARLPLS,0.94 / 0.81 / 0.85,0.87
KSSQSVLYESRNKNSVA,WISTRES,QQYGRLVLS,n.d. / n.d. / n.d.,n.d.
KSSQSVLYESRKKNSVA,WFSTRES,QQYGRLPLS,n.d. / n.d. / n.d.,n.d.
KSSQSVLYESRNKNSVA,WASTIES,QQYARLPWS,4.50 / 3.77 / n.d.,4.13
KSSQSDLYESRNKNSVA,WASTRES,QLYSRLPLS,1.84 / 1.89 / 1.92,1.88
KSSQSVLRESRNKNSVA,WASTRES,QQYYRLDLS,2.67 / 2.66 / 3.49,2.94
KSSQSVLYESRNKNHVA,WASTRES,QQYWILPLS,n.d. / n.d. / 2.84,2.84
KSTQSVGYESRNKNSVA,WASTRES,QQYWRLPLS,0.72 / 0.83 / 0.98,0.84
KSSQSVLYESRNKNSVA,WASTRES,QQYCRPPCS,n.d. / n.d. / n.d.,n.d.
KSSFSVLYESRNKNSVA,WASTRES,QQYWRLPLS,1.06 / 0.50 / 0.54,0.70
KSSQSVLYESRNKNSLA,WASTRES,QQYARQPLS,4.22 / n.d. / n.d.,4.22
KSSQSVLYESRNKNSVA,WASTRES,QQYCRWPLS,3.45 / n.d. / n.d.,3.45
KSSQSVLYQSRNKNSVA,WASTRES,QQYFRYPLS,1.49 / 1.50 / 1.65,1.55
KSSQSVLYESRNPNSSA,WASTRES,QQYPRLPLS,n.d. / n.d. / n.d.,n.d.
KSSQSVLPESRNKNSVA,WASTRES,QQYNALPLS,0.74 / 0.95 / 0.94,0.88
KSSQSVLNEQRNKNSVA,WASTRES,QQYQRLPLS,0.93 / 1.13 / 1.13,1.06
KSSQSVLYESRNKNSWA,WHSTRES,QQYVRLPLS,n.d. / 4.11 / 4.42,4.27
KSSQSVLYESRNKNSYA,WASTRES,QQYCRLPLS,n.d. / 3.72 / 4.03,3.87
KSSQSVLYESRNKNSVA,WCSTREF,QQYARLPLS,3.78 / 2.46 / 3.01,3.08
KSSQSVLYESRNKNSVA,WASTRES,QQYRRLPLS,1.18 / 1.21 / 1.33,1.24
KSSPSVLYESRNKNSVA,WASERES,QQYARLPLS,n.d. / n.d. / 4.86,4.86
KSSQSVLYESRNKNSVA,WAWTRRS,QQYGRLPLS,n.d. / 3.88 / n.d.,3.88
KSQQSVLYESRNKNSVA,WASTRES,QQYWRCPLS,n.d. / n.d. / n.d.,n.d.
KSSQSVLYESRNKNHVA,WASTRES,QQHSRLPLS,4.58 / 3.36 / n.d.,3.97
KSSQSVLYESRNKNSVA,WASTRED,QQYGRLWLS,1.61 / 1.54 / 1.72,1.62
KSSQSVLYESRNVNSVA,WASTRES,QQRPRLPLS,5.90 / n.d. / n.d.,5.90
KSSQSVLYISRQKNSVA,WASTRES,QQYWRLPLS,2.75 / 2.54 / 3.74,3.01
KSSQSVLYEWRNKNSVA,WASTRES,QQYGRWPLS,1.04 / 1.09 / 1.13,1.09

Top 3 of the variants detected in all replicates, tightest first:

CDR-L1,CDR-L2,CDR-L3,log10 Kd (nM) by replicate,"mean, log10 nM"
KSSQSVLYESRNKNSVA,WASTRES,QDYLRLLLS,0.49 / 0.72 / 0.71,0.64
KSSFSVLYESRNKNSVA,WASTRES,QQYWRLPLS,1.06 / 0.50 / 0.54,0.70
KSSQSVLYESRNKNSVA,YASTLES,QQYSRLPLS,0.65 / 0.84 / 0.81,0.77

Three control strains display no target. For library AAYL50, 18% of the pairings with them gave a signal, with a median of 4.19 and one signal in twenty below 2.99, so weak values seen in few replicates may be background.